The list shows a part of the results, in another mix than the full data. Records with an inconclusive call do not appear. Activity calls are given as the source filed them. Unless noted, calls come from the whole dose curve; as a rule, active = well fitted curve in the direction sought with a large enough effect; inconclusive = small, poorly fitted or top-dose-only effect, or another doubt; inactive = no such curve, though single readings can be large; an effect the other way counts as inactive or inconclusive.
Legend:
[1] = biological target: Mitogen-activated protein kinase 10 (Mus musculus) (UniProt Q61831); experiment: JNK3 AlphaScreen Assay (AID 530; active = well fitted curve in either direction with a large enough effect, not every such curve was filed as active;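 note: kinase came from lysate of stimulated human HepG2 cells; signal reports phosphorylation of biotinylated GST-cJun 1-79 at Ser73 with 10 µM ATP; % is set by controls: 0 for no effect and ±100 for the full control effect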); details: JNK3 lysate, c-Jun phosphorylation; at 11.4 µM (top of the series) unless noted
Summary of the method: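 Kinase buffer: 20 mM Tris-HCl pH 7.6, 10 mM MgCl2, 1 mM DTT, 0.1 mM Na3VO4, 0.01% Tween-20; ATP 10 uM. Substrate biotin-GST-cJun(1-79), enzyme from activated HepG2 lysates. Detection by Ser73 phospho-antibody AlphaScreen.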

[2] = Cell Viability - N2a (AID 540); details: N2a mouse neuroblastoma cell viability; at 92.2 µM (top of the series);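 note: cells exposed to compound for 40 h at 37 °C; plate controls were DMSO alone for no effect and tamoxifen control for full effect; nearly all actives have a fitted effect of over 45% in size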
Summary of the method: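 In this qHTS cytotoxicity screen, ATP-dependent luciferase luminescence reports viable N2a cells after a 40 hr compound exposure in complete culture medium. Potencies are AC50 values from standard Hill equation fits.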

[3] = Cell Viability - HUV-EC-C (AID 542);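 note: potency is the fitted concentration of half-maximal effect; cells exposed to compound for 40 hours; nearly all actives have a fitted effect of over 35% in size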
Summary of the method: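 Concentration-dependent ATP loss in HUV-EC-C cells is the measure. Exposure lasts 40 hr at 37 °C; luminescence follows CellTiter-Glo addition, and Hill fits give AC50.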

[4] = Cell Viability - H-4-II-E (AID 543);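 note: potency is the fitted concentration of half-maximal effect; cells exposed to compound for 40 hours; nearly all actives have a fitted effect of over 35% in size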
Summary of the method: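 AC50 from Hill-modelled qHTS concentration-response curves. H-4-II-E rat hepatoma cells in complete medium, 40 hr exposure at 37 °C, viability by CellTiter-Glo ATP luminescence.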

[5] = Cell Viability - SH-SY5Y (AID 544);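 note: potency is the fitted concentration of half-maximal effect; cells exposed to compound for 40 hours; nearly all actives have a fitted effect of over 55% in size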
Summary of the method: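 Quantitative HTS in SH-SY5Y neuroblastoma cells, 40 hr treatment at 37 °C, ATP content by luciferase luminescence; AC50 from Hill fits.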

[6] = Cellular Toxicity (caspase-3) HepG2 (AID 654); details: HepG2 caspase-3 activation, luminescence, 0% = DMSO only, 100% = tamoxifen; at 92.2 µM (top of the series);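 note: cells exposed to compound for 16 hours before reading; 0% = DMSO alone and 100% = caspase signal from 100 µM tamoxifen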
Summary of the method: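 Concentration-response AC50 values reflect caspase-3/7 induction in HepG2 cells after 16 hours of compound exposure, quantified by luminescence from liberated aminoluciferin and referenced to 100 uM tamoxifen as full stimulation.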

[7] = Cellular Toxicity (caspase-3) Jurkat (AID 655); details: Jurkat caspase-3 activation, luminescence, DMSO = 0%, tamoxifen = 100%; at 92.2 µM (top of the series);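 note: cells exposed to compound for 16 h at 37 °C before reading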
Summary of the method: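 Luminescent Caspase-Glo 3/7 read-out (20 min, room temperature) after 16 h compound treatment at 37 C of 5000 Jurkat cells per well. AC50 derived by Hill-equation fitting, scaled between DMSO basal and 100 uM tamoxifen stimulation.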

[8] = Cellular Toxicity (caspase-3) HUV-EC-C (AID 656); details: HUV-EC-C cells, caspase-3 activation (apoptosis), vehicle = 0, 100 µM tamoxifen = 100%; at 92.2 µM (top of the series)
Summary of the method: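 Luminescent Caspase-Glo 3/7 readout after 16 h, 37 °C compound exposure of HUV-EC-C endothelial cells, 1000 per well, complete medium. AC50 derived by Hill fitting, with DMSO as baseline and 100 uM tamoxifen as full activation.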

[9] = Cellular Toxicity (caspase-3) BJ (AID 658); details: BJ fibroblasts, luminescence, normalized: DMSO 0%, staurosporine 100%; at 91.7 µM (top of the series)
Summary of the method: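 Caspase-Glo 3/7 luminescence, read 1 hr after reagent at room temperature, in normal BJ fibroblasts exposed 16 hours at 37 °C. AC50 values from Hill-equation concentration-response, scaled between DMSO basal and 10 uM staurosporine as 100%.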

[10] = Cellular Toxicity (caspase-3) MRC-5 (AID 659); details: MRC-5 cells, luminescence, normalized: DMSO 0%, 10 µM staurosporine 100%; at 91.7 µM (top of the series)
Summary of the method: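 Luminescent Caspase-Glo 3/7 read-out (1 h, room temperature) after a 16 h, 37 °C compound exposure of MRC-5 lung fibroblasts at 1500 cells/well. Concentration-response AC50 from Hill equation; 0% DMSO, 100% 10 uM staurosporine.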

[11] = Cellular Toxicity (caspase-3) Mesangial (AID 660); details: mesangial cells, normalized: DMSO 0%, 100 µM tamoxifen 100%; at 91.7 µM (top of the series);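 note: combined caspase 3 and 7 activity read by Caspase-Glo luminescence; cells exposed to compound for 16 h before the caspase read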
Summary of the method: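 AC50 values come from Hill-equation fits of caspase 3/7 activation, measured as Caspase-Glo luminescence in human glomerular mesangial cells exposed to compound for 16 h at 37 °C; 100% set by 100 uM tamoxifen.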

[12] = Cellular Toxicity (caspase-3) Hek293 (AID 664); details: HEK293 caspase-3 activation, DMSO = 0%, 100 µM tamoxifen = 100%; at 92.2 µM (top of the series);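 note: cells exposed to compound for 16 h at 37 °C before readout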
Summary of the method: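 Apoptosis readout: Caspase-Glo 3/7 signal in human HEK293 cells following 16-hour compound incubation. Responses scaled between DMSO baseline and 100 uM tamoxifen.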

[13] = Cellular Toxicity (caspase-3) N2a (AID 665); details: N2a cells, luminescence, normalized: DMSO 0%, 10 µM staurosporine 100%; at 92.2 µM (top of the series);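 note: compound exposure lasted 16 h at 37 °C before readout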
Summary of the method: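 Concentration-response qHTS: compound-induced caspase-3/7 luminescence in N2a cells (16 h, 37 °C), relative to DMSO and 10 uM staurosporine controls; AC50 obtained using the standard Hill equation.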

[14] = Cellular Toxicity (caspase-3) NIH 3T3 (AID 666); details: NIH 3T3 caspase-3 activation, apoptosis/toxicity, 0% DMSO, 100% is 100 µM tamoxifen; at 92.2 µM (top of the series);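 note: 0% = DMSO basal and 100% = 100 µM tamoxifen stimulation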
Summary of the method: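 Activity: caspase-3/7 induction, NIH 3T3 cells, 16 hr treatment at 37°C, luminescent Caspase-Glo detection; AC50 via Hill equation.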

[15] = Cellular Toxicity (caspase-3) Renal Proximal Tubule (AID 667); details: renal proximal tubule cells, primary cells freshly taken from rat, solvent-only wells 0%, staurosporine 100%; at 91.7 µM (top of the series);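 note: cells exposed to compound for 16 hours at 37 °C before detection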
Summary of the method: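 Caspase 3/7 activation measured by luminescent aminoluciferin release in primary rat proximal tubule cells after 16 hr compound exposure at 37 °C. AC50 from Hill-fitted concentration-response, scaled between DMSO and 10 uM staurosporine.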

[16] = MultiTox-Fluor Cytotoxicity Assay - LYMP1-001 - Dead Cells (AID 946); details: LYMP1-001 lymphoblastoid cells, dead-cell protease fluorescence; at 92.2 µM (top of the series);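 note: 0% = DMSO and 100% = tetraoctylammonium bromide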
Summary of the method: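 In this qHTS, 15 uM tetraoctylammonium bromide defined 100% and DMSO defined basal activity. Lymphoblastoid cells (LYMP1-001, 2500 per well) received compound for 16 hr at 37 C before a fluorogenic dead-cell substrate readout at 485/520 nm.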

[17] = MultiTox-Fluor Cytotoxicity Assay - LYMP1-003 - Live Cells (AID 962); details: LYMP1-003 lymphoblastoid cells, MultiTox-Fluor live-cell protease fluorescence; at 92.2 µM (top of the series);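 note: 0% = DMSO only and full loss = 92 µM tetraoctylammonium bromide; cytotoxic hits lower the live-cell protease signal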
Summary of the method: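 Human lymphoblastoid line LYMP1-003 in complete culture medium, treated 16 hr with titrated compounds. Viable cells quantified via cell-permeant GF-AFC substrate fluorescence; AC50 derived by Hill fitting.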

[18] = Cell Viability - LYMP1-003 - Assay at 24 hr (AID 963); details: LYMP1-003 lymphoblastoid cell viability; at 92.2 µM (top of the series);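 note: plate controls were DMSO only for no effect and tetraoctylammonium bromide positive control for full effect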
Summary of the method: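 The lymphoblastoid line was treated with titrated compounds for 24 hours, and viable cell number estimated from luciferase-based ATP luminescence.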

Q: Which results are given for `CN(N=O)C(=N)N[N+](=O)[O-]`?
A: activity change, negative = inhibition [1]: inactive: -3.32% [at 57.1 µM]; activity change, negative = cytotoxicity [2]: active: -115%; Potency [3]: active: 25.1 µM; Potency [4]: active: 39.8 µM; Potency [5]: active: 12.6 µM; caspase-3 activation [6]: inactive: 5.42%; caspase-3 activation [7]: inactive: -2.9%; caspase-3 activation [8]: inactive: 6.76%; caspase-3 activation [9]: inactive: 2.47%; caspase-3 activation [10]: inactive: 2.68%; caspase-3 activation [11]: inactive: 11.8%; caspase-3 activation [12]: inactive: 1.03%; caspase-3 activation [13]: inactive: -7.46%; caspase-3 activation [14]: inactive: 8.21%; caspase-3 activation [15]: inactive: 7.26%; cytotoxicity (dead cells) [16]: inactive: 12.1%; activity change, negative = fewer live cells [17]: inactive: -23.8%; viability change, negative = cytotoxic [18]: inactive: -20.9%
